This passage reports IC50 and LLE results from patent US12668568B2, “Adamantanyl-substituted benzamide compounds and their use as P2X7 receptor antagonists” (The University of Sydney, priority 2018, dated 2026).

The chains behind the UniProt entries cited, without tags or fusion partners.
UniProt Q99572, whole entry Y155H/R270H: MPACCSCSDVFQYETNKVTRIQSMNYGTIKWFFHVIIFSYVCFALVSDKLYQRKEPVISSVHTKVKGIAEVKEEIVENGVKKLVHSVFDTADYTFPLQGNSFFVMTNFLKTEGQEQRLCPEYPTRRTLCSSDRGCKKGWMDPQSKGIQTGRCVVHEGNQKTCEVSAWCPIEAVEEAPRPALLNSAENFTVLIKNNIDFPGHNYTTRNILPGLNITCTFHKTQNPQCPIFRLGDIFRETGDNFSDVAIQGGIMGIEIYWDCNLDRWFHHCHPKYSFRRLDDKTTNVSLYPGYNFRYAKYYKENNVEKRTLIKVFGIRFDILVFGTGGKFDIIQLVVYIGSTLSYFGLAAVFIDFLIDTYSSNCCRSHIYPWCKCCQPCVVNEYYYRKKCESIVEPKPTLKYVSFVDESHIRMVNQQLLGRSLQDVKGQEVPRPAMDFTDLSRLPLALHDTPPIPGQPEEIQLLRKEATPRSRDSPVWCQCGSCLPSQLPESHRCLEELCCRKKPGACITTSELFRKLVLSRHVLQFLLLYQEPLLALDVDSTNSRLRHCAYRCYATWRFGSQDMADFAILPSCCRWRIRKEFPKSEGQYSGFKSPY
UniProt Q99572, whole entry V76A/Y155H/R270H: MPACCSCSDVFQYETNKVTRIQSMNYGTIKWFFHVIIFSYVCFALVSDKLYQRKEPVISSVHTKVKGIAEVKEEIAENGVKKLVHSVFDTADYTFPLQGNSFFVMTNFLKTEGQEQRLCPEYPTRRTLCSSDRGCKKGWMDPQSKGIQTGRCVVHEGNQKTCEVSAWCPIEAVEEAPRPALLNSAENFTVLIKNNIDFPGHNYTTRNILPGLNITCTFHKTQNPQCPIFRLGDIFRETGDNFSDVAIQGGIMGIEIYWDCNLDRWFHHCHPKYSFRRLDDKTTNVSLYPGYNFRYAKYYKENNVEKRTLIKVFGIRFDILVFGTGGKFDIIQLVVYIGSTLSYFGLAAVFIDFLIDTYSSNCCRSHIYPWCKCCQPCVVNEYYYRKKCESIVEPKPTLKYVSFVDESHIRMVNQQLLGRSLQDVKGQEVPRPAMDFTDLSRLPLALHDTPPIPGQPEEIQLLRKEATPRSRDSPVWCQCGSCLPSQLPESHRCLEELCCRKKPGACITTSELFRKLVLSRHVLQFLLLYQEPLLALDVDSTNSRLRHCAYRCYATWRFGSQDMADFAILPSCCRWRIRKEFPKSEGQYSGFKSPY
UniProt Q99572, whole entry R270H: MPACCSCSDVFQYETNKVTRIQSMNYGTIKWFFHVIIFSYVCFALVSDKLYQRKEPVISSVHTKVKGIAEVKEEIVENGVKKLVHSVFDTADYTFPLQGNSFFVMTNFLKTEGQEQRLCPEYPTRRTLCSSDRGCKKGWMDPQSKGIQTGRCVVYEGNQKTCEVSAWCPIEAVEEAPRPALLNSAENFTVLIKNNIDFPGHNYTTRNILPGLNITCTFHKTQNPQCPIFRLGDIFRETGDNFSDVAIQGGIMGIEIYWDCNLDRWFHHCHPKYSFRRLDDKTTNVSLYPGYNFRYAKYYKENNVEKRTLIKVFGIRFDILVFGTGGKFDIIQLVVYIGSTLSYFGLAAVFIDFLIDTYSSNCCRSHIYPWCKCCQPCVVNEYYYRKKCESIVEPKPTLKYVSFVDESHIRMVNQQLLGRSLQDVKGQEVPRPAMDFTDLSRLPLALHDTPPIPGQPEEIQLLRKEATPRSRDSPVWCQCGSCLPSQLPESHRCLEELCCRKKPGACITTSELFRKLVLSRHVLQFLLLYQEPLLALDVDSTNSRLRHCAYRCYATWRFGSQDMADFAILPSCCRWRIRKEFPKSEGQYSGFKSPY
UniProt Q99572, whole entry Y155H: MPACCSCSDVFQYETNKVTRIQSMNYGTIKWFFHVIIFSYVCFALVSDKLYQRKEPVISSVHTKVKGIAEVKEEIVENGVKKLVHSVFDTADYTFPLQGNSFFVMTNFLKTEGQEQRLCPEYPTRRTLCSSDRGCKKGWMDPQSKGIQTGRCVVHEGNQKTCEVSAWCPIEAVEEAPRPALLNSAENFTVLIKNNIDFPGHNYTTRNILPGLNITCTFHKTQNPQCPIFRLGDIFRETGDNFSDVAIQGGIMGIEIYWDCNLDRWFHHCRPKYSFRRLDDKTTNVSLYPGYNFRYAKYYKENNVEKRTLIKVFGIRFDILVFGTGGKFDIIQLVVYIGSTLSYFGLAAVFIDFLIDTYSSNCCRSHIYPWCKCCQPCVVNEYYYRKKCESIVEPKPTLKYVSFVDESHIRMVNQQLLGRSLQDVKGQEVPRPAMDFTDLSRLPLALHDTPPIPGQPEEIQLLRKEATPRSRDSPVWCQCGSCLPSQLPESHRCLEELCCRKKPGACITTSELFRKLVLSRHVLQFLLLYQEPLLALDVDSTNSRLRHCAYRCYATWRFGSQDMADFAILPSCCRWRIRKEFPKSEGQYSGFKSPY
UniProt Q99572, whole entry Y155H/R270H/A348T: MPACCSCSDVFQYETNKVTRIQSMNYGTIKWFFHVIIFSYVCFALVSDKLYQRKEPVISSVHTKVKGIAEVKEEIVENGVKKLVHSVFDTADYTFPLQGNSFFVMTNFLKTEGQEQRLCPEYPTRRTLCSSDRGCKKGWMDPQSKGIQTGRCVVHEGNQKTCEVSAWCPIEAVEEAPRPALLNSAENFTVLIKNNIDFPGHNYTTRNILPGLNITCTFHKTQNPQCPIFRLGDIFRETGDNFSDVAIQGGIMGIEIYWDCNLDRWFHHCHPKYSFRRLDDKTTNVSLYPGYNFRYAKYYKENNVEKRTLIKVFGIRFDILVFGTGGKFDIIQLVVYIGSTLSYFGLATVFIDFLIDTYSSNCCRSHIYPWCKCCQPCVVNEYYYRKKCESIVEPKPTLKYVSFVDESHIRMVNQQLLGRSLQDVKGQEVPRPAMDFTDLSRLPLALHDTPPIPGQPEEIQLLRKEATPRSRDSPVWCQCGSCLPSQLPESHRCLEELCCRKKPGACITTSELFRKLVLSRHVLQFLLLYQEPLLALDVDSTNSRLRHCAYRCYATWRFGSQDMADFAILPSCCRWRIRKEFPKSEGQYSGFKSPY
UniProt Q99572, whole entry Y155H/R270H/T357S: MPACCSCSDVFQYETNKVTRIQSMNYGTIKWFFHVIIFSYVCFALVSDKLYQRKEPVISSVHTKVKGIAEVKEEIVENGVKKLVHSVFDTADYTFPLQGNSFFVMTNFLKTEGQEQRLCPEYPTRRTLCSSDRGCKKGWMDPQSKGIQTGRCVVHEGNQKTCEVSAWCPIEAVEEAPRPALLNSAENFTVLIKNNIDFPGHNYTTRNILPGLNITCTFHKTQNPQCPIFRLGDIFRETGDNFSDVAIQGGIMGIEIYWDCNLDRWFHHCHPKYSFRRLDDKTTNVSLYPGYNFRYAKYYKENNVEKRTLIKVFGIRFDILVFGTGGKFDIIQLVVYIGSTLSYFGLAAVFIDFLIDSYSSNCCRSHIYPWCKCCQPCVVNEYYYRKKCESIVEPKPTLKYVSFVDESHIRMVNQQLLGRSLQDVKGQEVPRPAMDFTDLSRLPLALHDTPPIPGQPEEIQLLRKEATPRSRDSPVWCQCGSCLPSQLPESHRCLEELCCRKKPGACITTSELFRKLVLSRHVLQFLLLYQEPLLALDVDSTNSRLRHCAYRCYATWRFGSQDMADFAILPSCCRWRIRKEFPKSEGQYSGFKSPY
UniProt Q99572, whole entry Y155H/R270H/A348T/Q460R: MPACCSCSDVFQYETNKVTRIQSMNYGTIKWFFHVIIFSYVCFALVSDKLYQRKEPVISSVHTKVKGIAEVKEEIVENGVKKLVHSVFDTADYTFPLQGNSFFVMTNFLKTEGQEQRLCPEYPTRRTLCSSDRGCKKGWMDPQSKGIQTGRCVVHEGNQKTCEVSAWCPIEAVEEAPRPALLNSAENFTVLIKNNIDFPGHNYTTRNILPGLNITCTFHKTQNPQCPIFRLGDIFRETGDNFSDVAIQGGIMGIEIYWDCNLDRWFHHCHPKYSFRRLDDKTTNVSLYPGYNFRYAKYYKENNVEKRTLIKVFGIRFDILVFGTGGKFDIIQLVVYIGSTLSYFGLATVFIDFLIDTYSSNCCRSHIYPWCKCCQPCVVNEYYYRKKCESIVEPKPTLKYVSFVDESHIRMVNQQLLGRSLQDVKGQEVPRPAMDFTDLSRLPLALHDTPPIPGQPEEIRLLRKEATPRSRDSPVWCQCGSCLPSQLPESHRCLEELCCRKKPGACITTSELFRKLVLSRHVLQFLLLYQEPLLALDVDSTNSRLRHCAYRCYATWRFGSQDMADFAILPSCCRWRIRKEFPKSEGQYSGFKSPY

Type in all cases: cell-based
One assay concerns the target hP2X7R WT (Homo sapiens, UniProt Q99572, R270H/Y155H). Put plainly: Ethidium bromide uptake assay, HEK293 transfected with hP2X7R WT.
The next assay has as its target hP2X7R V76A (Homo sapiens, UniProt Q99572, R270H/V76A/Y155H). The assay can be described thus: Ethidium bromide uptake assay, HEK293 transfected with hP2X7R SNP V76A. The note with it: agonist 100 μM BzATP.
The target of the next assay is hP2X7R H155T (Homo sapiens, UniProt Q99572, R270H, form not given). The assay can be described thus: Ethidium bromide uptake assay, HEK293 transfected with hP2X7R SNP H155T.
Another assay deals with hP2X7R H270R (Homo sapiens, UniProt Q99572, Y155H). The assay can be described thus: Ethidium bromide uptake assay, HEK293 transfected with hP2X7R SNP H270R.
The next assay has as its target hP2X7R A348T (Homo sapiens, UniProt Q99572, A348T/R270H/Y155H). The assay can be described thus: Ethidium bromide uptake assay, HEK293 transfected with hP2X7R SNP A348T.
The target of the next assay is hP2X7R T357S (Homo sapiens, UniProt Q99572, R270H/T357S/Y155H). Put plainly: Ethidium bromide uptake assay, HEK293 transfected with hP2X7R SNP T357S. Conditions: agonist 100 μM BzATP.
For another assay, the target named is hP2X7R Q460R (Homo sapiens, UniProt Q99572, A348T/Q460R, form not given). Put plainly: Ethidium bromide uptake assay, HEK293 transfected with hP2X7R SNP Q460R.
In the next assay the target is hP2X7R (Homo sapiens, UniProt Q99572). The assay can be described thus: Yo-Pro uptake assay for P2X7R pore formation in THP-1 cells. Set-up: Following an overnight incubation (16 h) required for THP-1 differentiation; endogenous in cells; host or cells: THP-1 (ATCC), differentiated with LPS and IFN-gamma.
The mark [1] stands for this setting: 100 μM BzATP, agonist 100 μM BzATP.

Like-named read-outs stand apart in the source and are kept apart here.

On to `COc1ccc(Cl)c(C(=O)NCC23CC4(F)CC(F)(CC(F)(C4)C2)C3)c1` [Compound 1, 2-Chloro-N-((3,5,7-trifluoroadamantan-1-yl)methyl)-5-methoxybenzamide], for which the IC50 at hP2X7R WT (setting [1]) turned out to be 33 ± 6 nM; at hP2X7R WT (1 mM ATP, agonist 1 mM ATP) it was 49 ± 24 nM; on hP2X7R V76A, 24 ± 9 nM; at hP2X7R H155T (read-out: IC50 H155T, 100 μM BzATP, agonist 100 μM BzATP), 20 ± 5 nM; at hP2X7R H155T (read-out: IC50 H155T, 1 mM ATP, agonist 1 mM ATP), 49 ± 21 nM; on hP2X7R H270R (setting [1]), 52 ± 20 nM. The IC50 at hP2X7R H270R (1 mM ATP, agonist 1 mM ATP) is 34 ± 17 nM; on hP2X7R A348T (setting [1]), 30 ± 10 nM; on hP2X7R A348T (1 mM ATP, agonist 1 mM ATP), 48 ± 6 nM; at hP2X7R T357S it was 35 ± 12 nM; at hP2X7R Q460R (read-out: IC50 Q460R, 100 μM BzATP, Q460R (plasmid contains 348T and 460R), agonist 100 μM BzATP), 62 nM; at hP2X7R Q460R (read-out: IC50 Q460R, 1 mM ATP, Q460R (plasmid contains 348T and 460R), agonist 1 mM ATP) it was 55 ± 4 nM. For the same compound, the IC50 at hP2X7R (THP-1 cells, BzATP 100 μM, YO-PRO-1, mean ± standard deviation, n >4, read-out: Dye uptake IC50 hP2X7R) was found to be 33.9 ± 11 nM. Besides, at hP2X7R (pIC50 from dye uptake and LogD from HPLC), the LLE came to 4.64.

A word on the IC50: it is the concentration that inhibits the measured activity by half.
